Source: PubChem BioAssay
Hits are enriched below; roughly 1.5% of the tested compounds scored in any of these assays.
Pemphigus Ab inh – blocks pemphigus antibody binding to human desmoglein-3 | 0.48% of 310,000 active | P32926 | DSG3-coupled beads, scFv-anti-DSG3-GFP binding, flow cytometry; active compounds read low | binding (percent of control), % at 10 µM;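 active = binding more than 3 SD below its plate's average and above zero; inconclusive = below that plate limit but binding exactly zero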;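 also: hits lower antibody fragment binding to DSG3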
PABP1 MLLE inh – inhibitors of microRNA-mediated deadenylation, human PABP1 MLLE binding. GST-MLLE / FITC-PAM2 fluorescence polarization. inhibition, % at 20 µM. 0.36% of 360,000 active. AID 588489; in the data active = inhibition above about 35%, passing the limit was not always enough;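 also: plate controls were DMSO wells with GST-MLLE for no effect and wells lacking GST-MLLE protein for full effect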
PABP FP inh – blocks human PABP binding to poly(A) RNA | P11940 | fluorescence polarization | calls only at 35 µM | 1% of 290,000 active;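 also: calls also rest on retests at 20 µM and on dose response follow-up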
Yeast UUG start – modulators of start codon recognition fidelity in yeast; S. cerevisiae UUG-firefly luciferase reporter, luminescence/redox ratio; activity score, % at 18.7 µM; hit rate 0.13% among 350,000; AID 602363;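 active = replicate mean at a twofold rise or more, about +100% in these data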;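 note: firefly luciferase made from a UUG start codon reports start codon fidelity; reporter light over untreated wells divided by growth signal over untreated wells; some hits fall short of that in this replicate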
eIF4H inh – inhibitors of RNA binding by human eIF4H; 0.94% of 290,000 active; eIF4H fluorescence polarization binding assay; inhibition, % at 35 µM; Q15056;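 also: calls also rest on retests at 20 µM and on dose response follow-up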
Active calls of the source: *; i = inactive; ? = inconclusive; / = not tested or not shown; + = active, no number. Unless noted, no rule for the calls is given here.

Pemphigus Ab inh | structure | PABP1 MLLE inh | PABP FP inh | Yeast UUG start | eIF4H inh
78 | N=C1/C(=C/c2cccn2-c2ccc([N+](=O)[O-])cc2)C(=O)N=C2SC=CN12 | -5 | i | / | 15
98 | O=C1NC(=S)N/C1=C/c1cccn1-c1ccc([N+](=O)[O-])cc1 | -6 | + | / | 84*
101 | O=C1C=C(c2cc3ccccc3s2)CCC1 | 2 | / | -15 | /
85* | CC1(C)CC(=O)C=C(c2cc3ccccc3s2)C1 | 4 | / | -17 | /
94 | O=C1/C(=C/c2ccco2)N=C(N2CCCCC2)N1c1ccccc1 | -5 | + | 6 | 88*
104 | O=C(c1nc2ccccn2c1CNCCCn1ncc2ccccc21)N1CCOCC1 | -9 | i | / | 0
111 | Cc1cccn2c(CNCCCn3ncc4ccccc43)c(C(=O)N3CCCCC3)nc12 | -3 | + | / | -2
/ | C[C@H](CO)N1C[C@H](C)[C@H](CN(C)S(C)(=O)=O)OCCCC[C@H](C)Oc2ccc(NS(=O)(=O)c3cn(C)cn3)cc2C1=O | / | / | -17 | /
103 | CCCSc1nnc(NC(=O)CSc2sc3c(O)cc(=O)[nH]c3c2C#N)s1 | 17 | + | -8 | 72*
36 | N#Cc1c(SCC(=O)Nc2nc3ccc(Br)cc3s2)sc2c(O)cc(=O)[nH]c12 | -35 | + | -23 | 73*

Pemphigus Ab inh | structure | PABP1 MLLE inh | PABP FP inh | Yeast UUG start | eIF4H inh
/ | N#Cc1cccc(NC(=O)CSc2sc3c(O)cc(=O)[nH]c3c2C#N)c1 | -10 | i | 16 | 27
101 | N#Cc1c(SCC(=O)Nc2nccs2)sc2c(O)cc(=O)[nH]c12 | -23 | + | -21 | 68*
95 | N#Cc1c(SCC(=O)Nc2nc3ccccc3s2)sc2c(O)cc(=O)[nH]c12 | -3 | / | -9 | /
/ | C[C@@H]1CN([C@H](C)CO)C(=O)c2cc(NC(=O)Cn3cnnn3)ccc2O[C@@H]1CN(C)Cc1ccc2c(c1)OCO2 | / | / | -5 | /
/ | CC(=O)N(C[C@H]1N[C@H](CO)[C@@H]1c1ccc(-c2cccnc2)cc1)C1CCCC1 | / | / | 7 | /
/ | CC(=O)N1[C@H](CO)[C@H](c2ccc(-c3ccccc3)cc2)[C@@H]1CNC(=O)C1CC1 | / | / | 2 | /
75* | COc1ccc(OC)c(NC(=O)NCCc2cccc(Cl)c2)c1 | -7 | i | / | 0
104 | Cc1nc2cc(C(=O)O)ccc2s1 | 39* | i | -28 | -15
297 | N#C/C(=C/c1ccc(N2CCCCC2)o1)C(=O)Nc1ccc(Cl)cc1 | -112 | i | -20 | 127*
860 | N#C/C(=C/c1ccc(N2CCCCC2)o1)C(=O)Nc1ccc2ccccc2c1 | i | i | / | ?

Pemphigus Ab inh | structure | PABP1 MLLE inh | PABP FP inh | Yeast UUG start | eIF4H inh
103 | O=C(NC(=S)Nc1ccc2oc(=O)ccc2c1)c1ccco1 | 43* | i | -10 | -10
83* | O=C(Nc1ccc2oc(=O)ccc2c1)c1ccc(-c2ccccc2[N+](=O)[O-])o1 | 1 | i | / | 19
/ | C[C@H](CO)N1C[C@H](C)[C@@H](CN(C)C(=O)Nc2cccc3ccccc23)OCCCC[C@H](C)Oc2ccc(NS(=O)(=O)c3cccs3)cc2C1=O | / | / | -11 | /
/ | CC1(C)CC(=O)C2=C(C1)NC(SCC(N)=O)=C(C#N)C21CCCCC1 | 36* | i | -18 | 2
103 | CCOC(=O)c1c(OCC)[nH]c2c1cc(O)c1ccccc12 | 26 | + | -23 | 72*
/ | CCOC(=O)c1c(C)[nH]c2cc(Br)c(O)cc12 | -1 | i | -5 | -5
/ | C[C@@H]1CN([C@@H](C)CO)C(=O)Cc2cc(NC(=O)NC3CCCCC3)ccc2O[C@H]1CN(C)CC1CCCCC1 | / | / | -3 | /
/ | COc1cccc(-c2cnc3c(c2)C(=O)N([C@@H](C)CO)C[C@H](C)[C@@H](CN(C)Cc2ccc(C(=O)O)cc2)O3)c1 | / | / | 7 | /
110 | CCNc1cc2oc(=O)c(CN3CCOCC3)c(C)c2cc1C | 48* | ? | -13 | ?
98 | Cc1cc2oc(=O)cc(CN3CCOCC3)c2cc1C | -8 | i | 2 | -3

Pemphigus Ab inh | structure | PABP1 MLLE inh | PABP FP inh | Yeast UUG start | eIF4H inh
/ | COc1ccc(-c2cnc3c(c2)C(=O)N([C@H](C)CO)C[C@@H](C)[C@@H](CN(C)C)O3)cc1 | / | / | -12 | /
105 | CC(C)(C)C(=O)Nc1c2c(nn1-c1ccc(F)cc1)CSC2 | 37* | i | -24 | 5
90 | CC(C)(C)c1ccc2c(c1)OC(C(=O)N/N=C\c1ccccn1)CO2 (configuration not stated) | -5 | i | / | 7
86 | O=C(O)c1cccc(-c2ccc(/C=N/NC(=O)C3COc4ccccc4O3)o2)c1 (configuration not stated) | -5 | i | / | 72*
105 | O=C(N/N=C\c1ccc(-c2ccccc2[N+](=O)[O-])o1)C1COc2ccccc2O1 (configuration not stated) | 8 | i | -14 | 4
/ | Nc1nonc1C(=O)N/N=C/c1ccc(-c2cccc(C(=O)O)c2)o1 | / | i | / | 55*
98 | CC(C)(C)c1ccc2c(c1)OC(C(=O)N/N=C\c1ccc(-c3cccc(C(=O)O)c3)o1)CO2 (configuration not stated) | 2 | + | / | 73*
/ | CC(C)NC(=O)N(C)C[C@@H]1Oc2ccc(NC(=O)Nc3ccc4c(c3)OCO4)cc2C(=O)N([C@@H](C)CO)C[C@@H]1C | / | / | 2 | /
93 | Cc1ccc(CNC(=O)COC(=O)Cc2ccc(-c3ccccc3)cc2)cc1 | 11 | i | -14 | 0
19* | O=C(COC(=O)Cc1ccc(-c2ccccc2)cc1)NCc1ccc(F)cc1 | -1 | i | / | 1

Pemphigus Ab inh | structure | PABP1 MLLE inh | PABP FP inh | Yeast UUG start | eIF4H inh
110 | COc1cc(/C=c2\s/c(=C(/C#N)C(=O)N3CCCC3)n(-c3ccccc3)c2=O)ccc1O | -33 | + | -16 | 80*
80 | N=C(N)N=Nc1c(O)[nH]c2ccc(Br)cc12 | -14 | i | / | -2
106 | NC(=S)N=Nc1c(O)[nH]c2cc(F)c(F)cc12 | 40* | i | / | -8
91 | NC(=S)N=Nc1c(O)[nH]c2c(Cl)cc(Cl)cc12 | 45* | / | -20 | /
/ | NC(=O)N=Nc1c(O)[nH]c2c(Br)cc(Br)cc12 | / | i | / | 1
65* | Cc1ccc(SSc2cc(C)ccc2N)c(N)c1 | 24 | / | -19 | /
/ | Cc1cccc(S(=O)(=O)N2C[C@@H](O)COC[C@@H]3O[C@H](CC(=O)NCc4ccncn4)CC[C@H]32)c1 | / | / | -12 | /
101 | N#C/C(=N/Nc1ccc(OC(F)(F)F)cc1)C(N)=S | 41* | i | / | -7
/ | CCC(=O)N(C)C[C@@H]1Oc2cc(C#CC(C)C)ccc2S(=O)(=O)N([C@@H](C)CO)C[C@@H]1C | / | / | -2 | /
72* | COc1ccc(C(=O)Nn2c(C)nc3ccccc3c2=O)cc1Br | 3 | i | / | -13

Pemphigus Ab inh | structure | PABP1 MLLE inh | PABP FP inh | Yeast UUG start | eIF4H inh
98 | COc1ccc(/C=C(\NC(=O)c2ccccc2)C(=O)N/N=C/c2ccncc2)cc1 | 10 | i | -16 | -1
94 | COc1ccc(/C=C(/NC(=O)c2ccccc2)C(=O)N/N=C/c2ccncc2)c(OC)c1 | -11 | i | / | active
87 | N#C/C(=C\c1ccc(C(=O)O)cc1)c1ccccn1 | -4 | + | / | 64*
110 | COc1cc2cc(/C=C/C(=O)c3ccco3)c(Cl)nc2cc1OC | -35 | + | -8 | 77*

Three compounds already listed, sorted by molar mass, low to high.
Pemphigus Ab inh | structure | PABP1 MLLE inh | PABP FP inh | Yeast UUG start | eIF4H inh
110 | COc1cc2cc(/C=C/C(=O)c3ccco3)c(Cl)nc2cc1OC | -35 | + | -8 | 77*
98 | COc1ccc(/C=C(\NC(=O)c2ccccc2)C(=O)N/N=C/c2ccncc2)cc1 | 10 | i | -16 | -1
94 | COc1ccc(/C=C(/NC(=O)c2ccccc2)C(=O)N/N=C/c2ccncc2)c(OC)c1 | -11 | i | / | active

4 records drawn at random from those above:
Pemphigus Ab inh | structure | PABP1 MLLE inh | PABP FP inh | Yeast UUG start | eIF4H inh
94 | COc1ccc(/C=C(/NC(=O)c2ccccc2)C(=O)N/N=C/c2ccncc2)c(OC)c1 | -11 | i | / | active
110 | COc1cc2cc(/C=C/C(=O)c3ccco3)c(Cl)nc2cc1OC | -35 | + | -8 | 77*
87 | N#C/C(=C\c1ccc(C(=O)O)cc1)c1ccccn1 | -4 | + | / | 64*
98 | COc1ccc(/C=C(\NC(=O)c2ccccc2)C(=O)N/N=C/c2ccncc2)cc1 | 10 | i | -16 | -1
